Several values for one entry are separate records, joined by “and”; a condition that tells them apart may be missing. Identical values can stand only once.
Experiments:
Gal-3 = Gal-3 (Homo sapiens, UniProt P17931); assay: competitive fluorescence polarisation assay, Gal-3
Gal-1 = Gal-1 (Homo sapiens, UniProt P09382); assay: competitive fluorescence polarisation assay, Gal-1
Gal-8N = Gal-8N (Homo sapiens, UniProt O00214); assay: ligand efficiency (LE) and ligand-lipophilicity efficiency (LLE) calculations
[1] = biological target: Gal-8N (galectin-8 N-terminal domain) (Homo sapiens, UniProt O00214); assay: competitive fluorescence polarisation assay, Gal-8N; settings: read-out: Kd Gal-8N; competitive FP, mean ± SEM of n = 4 to 8, 20 °C
Gal-8C = Gal-8C (Homo sapiens, UniProt O00214); assay: competitive fluorescence polarisation assay, Gal-8C

Sequences of proteins named here, by UniProt entry; tags and fusion partners are left off. Residues count along the entry.
UniProt P17931, whole entry: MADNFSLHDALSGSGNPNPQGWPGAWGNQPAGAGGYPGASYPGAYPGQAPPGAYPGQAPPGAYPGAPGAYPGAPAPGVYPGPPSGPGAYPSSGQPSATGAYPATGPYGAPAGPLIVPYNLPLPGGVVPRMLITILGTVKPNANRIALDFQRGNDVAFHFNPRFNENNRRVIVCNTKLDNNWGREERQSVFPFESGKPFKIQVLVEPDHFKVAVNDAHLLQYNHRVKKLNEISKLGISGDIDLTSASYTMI
UniProt P09382, whole entry: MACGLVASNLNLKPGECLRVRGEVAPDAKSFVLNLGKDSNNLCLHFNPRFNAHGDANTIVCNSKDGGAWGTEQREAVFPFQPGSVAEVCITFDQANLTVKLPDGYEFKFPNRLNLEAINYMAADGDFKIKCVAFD
UniProt O00214, 4-158 limits assumed: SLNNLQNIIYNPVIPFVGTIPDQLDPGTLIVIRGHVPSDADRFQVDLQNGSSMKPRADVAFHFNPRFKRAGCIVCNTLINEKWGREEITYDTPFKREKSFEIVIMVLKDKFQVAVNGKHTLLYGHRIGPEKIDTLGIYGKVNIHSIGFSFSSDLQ
UniProt O00214, 19-152 limits assumed: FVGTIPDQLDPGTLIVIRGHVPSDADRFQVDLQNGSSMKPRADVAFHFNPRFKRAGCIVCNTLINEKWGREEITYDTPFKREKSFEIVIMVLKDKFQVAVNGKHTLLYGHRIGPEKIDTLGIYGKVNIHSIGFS
UniProt O00214, 187-317 limits assumed: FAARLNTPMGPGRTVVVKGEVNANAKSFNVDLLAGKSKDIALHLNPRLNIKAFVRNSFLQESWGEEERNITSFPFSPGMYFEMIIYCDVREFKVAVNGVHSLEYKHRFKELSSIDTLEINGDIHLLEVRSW

Gal-3 selectivity ratio Kd (Gal-3)/Kd (Gal-8N) (Gal-3; ratio of FP Kd values): 5.7 | Kd (Gal-3; read-out: Kd Gal-3, competitive FP, mean ± SEM of n = 4 to 8, 20 °C): 5.7 µM | Gal-1 selectivity ratio Kd (Gal-1)/Kd (Gal-8N) (Gal-1; ratio of FP Kd values): 12 | Kd (Gal-1; read-out: Kd Gal-1, competitive FP, mean ± SEM of n = 4 to 8, 20 °C): 12 µM | LLE (Gal-8N; from Gal-8N Kd and clogP): 1.35 | LE (Gal-8N; from Gal-8N Kd and number of non-hydrogen atoms): 0.216 (kcal/mol)/heavy atom | Kd [1]: 1.02 µM and 1 µM | Gal-8C selectivity ratio Kd (Gal-8C)/Kd (Gal-8N) (Gal-8C; ratio of FP Kd values): 374 | Kd (Gal-8C; read-out: Kd Gal-8C, competitive FP, mean ± SEM of n = 4 to 8): 374 µM
SMILES: Cn1c(CO[C@H]2[C@@H](O)[C@@H](CO)O[C@H](Sc3ccc(Cl)c(Cl)c3)[C@@H]2OCC2CC2)nc2ccc(C(=O)O)cc21

From article PMC11850616, “Nanomolar inhibitor of the galectin-8 N-terminal domain binds via a non-canonical cation-π interaction” (Communications Chemistry, 2025)
